For the data set the following is noted: mouse, in vivo, ip.

Turning to “4-O-[^18F]FluoroPEG3-2-(1H-pyrrolo[2,3-c]pyridine-1-yl)pyridine [[^18F]FAZIN3]”, the clearance route result is recorded as “clear from the liver to the lower GI tract as well as to the urinary bladder”.
